In patent publication EP0830890A1, “Surfactants for use in liquid/supercritical CO2” (AIR PRODUCTS AND CHEMICALS, INC., priority 1996, dated 1998):

Columns and labels:
[1] = Water uptake by surfactant/CO2 mixture (phase behavior, cloud point); assay type: physicochemical; settings: Wt% Surfactant in CO2 0.751; 4010 psi 65°C; listed as 20
Protocol: Utilizing the same phase behavior appartus described in Example 1, a known amount of water was added through a sample loop to a surfactant CO2 mixture of known phase behavior (i.e. its cloud point was first determined). Comparisons were made to water solubilization by pure CO2 and compared to the pure surfactant phase behavior to study the effect the water addition had made, if any, on the measured cloud point for the system.
If the surfactant allowed for the uptake of water, the system would show a single phase at water loadings beyond that normally solubilized by CO2. A cloud point could then be measured for the system, and compared to pure water and pure surfactant phase behavior in CO2.

[2] = Solubility in CO2 by cloud point determination in a variable volume view cell; settings: Surfactant Concn. in CO2 3.8330 wt%; 35°C

For “Ethoxylated 2,4,7,9-Tetramethyl-5-decyn-4,7-diol [AP-420]”, the “Wt% of water uptake” value [1] was 0.553% and the “Pressure Describing Cloud Point Determinations For Surfactant/CO2Concentrations” value [2] was 2350.
